Binding of CDR-mutated scFvs to a peptide of the spike HR2 region

Reference: Li et al. 2023, doi:10.1038/s41467-023-39022-2. File: FLAb, binding data.

The target is the same throughout: PDVDLGDISGINAS, from the HR2 region of SARS-CoV-2 spike.

Parent scFv Ab-14: VH joined to VL by three GGGGS repeats. Changes lie in the light chain CDRs alone.
VH: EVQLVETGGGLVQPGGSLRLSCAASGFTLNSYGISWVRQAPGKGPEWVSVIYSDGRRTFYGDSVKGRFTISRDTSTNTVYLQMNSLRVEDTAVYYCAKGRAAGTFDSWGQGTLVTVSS
VL: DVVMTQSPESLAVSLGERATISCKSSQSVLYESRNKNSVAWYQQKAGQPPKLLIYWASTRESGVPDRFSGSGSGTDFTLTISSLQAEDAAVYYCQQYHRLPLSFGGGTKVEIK

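The parent was found by panning a naive human phage display library on the peptide. These sequences belong to a second round, designed from the earlier measurements on random variants of the parent. Their group label is 14L_En_HC (En: ensemble of fine-tuned language models; HC: hill climbing; a sequence that several methods proposed may carry one label only). Affinity was read by AlphaSeq, a pooled yeast mating assay with surface-displayed partners. The frequency of each diploid, read from paired DNA barcodes, reflects how well the two displayed proteins bind. The ratio of observed to expected reads was calibrated, replicate by replicate, on BCL2-family standards whose Kd was known from biolayer interferometry. Each pool was mated in six replicate cultures.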

The parent's light chain CDRs are KSSQSVLYESRNKNSVA, WASTRES, QQYHRLPLS; each variant's own CDRs replace them letter for letter.
Scale: log10 of Kd in nM, estimated from mating counts; low values are strong binders.
"n.d." marks a missing value. The strain was present, yet no cells mated with the target were sequenced in that replicate, which points to weak or no binding.

CDR-L1,CDR-L2,CDR-L3,"log10 Kd, replicates",empty controls
KLRQVTGYESYNKNSVA,QMSTRAS,QDYHRLPLS,0.63 0.65 0.46 0.76 0.76 0.89,1/18 (2.62)
KIGAVTNGISRNKNSVA,EQSTRED,QQYNRLPLS,0.09 1.85 n.d. 0.45 n.d. 0.30,0/18
MLSDLVKMGVRNTSSVA,DNSTRGS,QQYDRLPLS,1.30 1.79 1.11 1.80 2.26 2.21,2/18 (2.29)
KLSQFYRMESRNKNSVA,DNSTRES,QYYDRLPLS,1.10 1.01 0.88 0.92 1.11 0.88,1/18 (2.34)
KISMMYNFASTNKNSIA,EMTTRES,QHYHRLPLS,0.73 1.65 0.81 0.75 1.42 1.59,0/18
MISDLTMYGSRNKSSVA,DSSTRGS,QQYHRLPLS,0.92 0.97 1.02 0.88 1.14 1.13,1/18 (3.20)
TLTQVQGMESHNKDNVA,DLSTRGN,QQYHRLPLS,0.86 0.64 0.76 0.58 0.72 0.82,1/18 (4.14)
MISDLTMYGSRNKNSVA,DLSTRGK,QQYHRLPLS,0.21 0.10 0.10 -0.06 0.07 0.13,1/18 (2.89)
MFSQSVMYGSFYRNSVA,QTSTREA,QQYDRLPLS,0.66 0.75 0.39 0.66 0.48 0.98,0/18
KITQLVMETSRNKNNVA,EVSTLPD,QQYHRLPLS,0.02 0.01 0.05 -0.38 -0.11 0.04,0/18
KISSMFYYESINKNSVA,QKSTREE,QDYHRLPLS,0.46 0.49 0.54 0.52 0.31 0.83,3/18 (2.79)
TIGQVMHYESRNKNSVA,QTSVREE,QDYDRLPLS,1.15 1.53 2.37 2.05 1.21 1.40,1/18 (3.31)
KISGYLNKESKAKNSVA,EMVNRES,QQYDRLPLS,0.91 n.d. 0.49 0.36 0.63 0.95,0/18
KLSQSVLFWGHAINSVA,EMVTREY,QQYDRLPLS,2.33 n.d. n.d. n.d. 2.26 2.48,0/18
KLSVSWQFESIEHNSVA,ERSTRES,QDYNRLPLS,3.39 1.66 1.49 1.00 0.59 1.07,2/18 (2.17)
KLGQSVAMTSRMKNNVA,DLNERER,QQYYRLPLS,0.10 0.25 0.08 0.39 0.21 0.08,0/18
MISQLFMYGSRNRNSVA,QASTRES,QQYDRLPLI,0.74 1.52 0.61 -0.01 0.77 0.22,2/18 (1.67)
IISDLTMYGSRNVNSVA,DLSTRGS,QQYDRLPLS,1.26 0.42 0.41 1.15 0.65 1.16,0/18
KLYMSTGYESYNKDSIA,DNSTRGR,QQYHRLPLS,1.22 1.43 1.30 1.01 1.06 1.78,3/18 (3.50)
MFSQSVMLGSFTRNSVA,QTSTRES,QQYDRLPLS,1.41 0.98 1.19 0.29 0.28 1.03,0/18
KITQLTMETSRNKNNVA,EVSTLPD,QQYHRLPLS,0.55 0.90 0.39 0.74 0.61 0.64,1/18 (2.04)
TLTQSLLMESHNKNSVA,DLSTRGS,QQYHRLPLS,0.27 -0.37 -0.23 0.03 0.04 0.09,0/18
KLRMSTGYESRNEDSIA,DNSTRGR,QQYHRLPLS,1.80 2.01 1.65 1.82 1.82 2.42,0/18
SITQLVAYGQRNKNSVA,QMSTREN,QQYDRLPLS,n.d. n.d. n.d. 2.61 3.18 2.04,0/18
MISQSFLIGMKAKNSVA,QTNTREA,QQYDRLPLI,0.25 0.30 0.16 0.02 0.17 0.47,2/18 (2.93)
KLYVSTMLESHDKNSIA,DLTTRGN,QQYHRLPLS,0.80 0.37 0.28 0.14 0.43 0.53,0/18
IFSQSVLMGNLTRNSVA,QASTRFS,QQYHRLPLI,n.d. 2.19 1.81 2.18 2.73 2.85,0/18
ALGDVTRMESLKKNSIA,DMSTRES,QQYHRLPLS,-0.09 -0.23 -0.29 -0.38 -0.41 0.10,1/18 (1.81)
KLSQSVLFFGHAINSVA,EMETREY,QQYDRLPLS,1.04 1.16 0.99 0.80 1.54 1.05,1/18 (1.56)
IISGSMLMESRTKNSVA,NAETREY,QHYDRLPLS,n.d. 2.37 2.07 n.d. n.d. 1.70,0/18
TLMQVGGYESNAHNSIA,DLRTRES,QQYHRLPLS,1.03 1.13 0.89 0.47 0.41 0.73,0/18
IISQSVLGEAHNKNSVA,QTSERGS,QQYDRLPLS,0.52 0.95 0.85 0.98 0.67 0.94,1/18 (2.08)
KLLQSVQYGSRALNSVA,QMETRED,QQYHRLPLA,1.74 1.23 1.38 1.21 1.06 1.27,0/18
HISTSMRYQSSLKNAIA,NAQTRES,QQYHRLPLS,1.55 2.74 1.68 1.22 1.12 1.03,0/18
KLSQSVMFMSGVYNSVA,QMSTRAE,QQYNHLPLS,0.06 -0.06 0.03 0.06 0.01 0.31,0/18
HISTSMRYESSLKKAIA,NAQTRES,QQYHRLPLS,0.64 0.23 0.32 0.94 0.92 0.96,1/18 (2.83)
MISDLTMIGSRNKNSVA,DLSTRGS,QQYHRLPLS,0.38 0.14 -0.16 0.13 0.02 0.12,2/18 (2.12)
TVGQVTMVESYNKDSVA,QATTRLE,QDYHRLPLS,0.35 0.38 0.36 0.27 0.23 0.27,2/18 (2.81)
KLSQVTEYESRNKNNVA,DLTTRGS,QDYHRLPLS,-0.44 -0.57 -0.54 -0.67 -0.69 -0.44,2/18 (2.56)
KISQMYRYEQQNSSSIA,EANTREN,QSYHRLPLS,1.97 2.81 4.21 n.d. 2.51 2.46,1/18 (1.88)
MLSDLVLYGVRNTNSVA,DNSTRGS,QQYDRLPLS,1.85 1.37 1.97 2.23 2.25 1.72,0/18
IVSQSVLGESRNKNSVA,QMSEREY,QQYDRLPLS,1.45 0.83 1.87 1.89 1.39 1.15,0/18
KISGYLNKESKLKNSVA,EMVNRES,QQYDRLPLS,2.23 1.69 1.55 1.36 2.55 2.59,0/18
MFSQLMAYGSRYKNSVA,QASTRED,QQYHELPLS,n.d. n.d. n.d. 3.75 n.d. n.d.,1/18 (1.83)
KLSELAHFESRKKNSVA,ENSTRES,QQYDHLPLS,1.99 2.09 2.15 1.93 1.50 1.90,1/18 (3.92)
KLGQMTAIESNNLNSVA,QMDTRES,QQYHRLPLS,1.14 0.97 0.43 0.27 0.18 0.92,3/18 (1.96)
KIYNMTGFQSRNADSIA,DNSTRGR,QQYHRLPLS,n.d. 2.99 1.96 2.60 2.87 n.d.,0/18
IITQSVMQESRNKSNVA,NTSERES,QQYDRLPLI,n.d. n.d. n.d. 2.84 2.06 n.d.,0/18

The last 4 entries again:

CDR-L1,CDR-L2,CDR-L3,"log10 Kd, replicates",empty controls
KLSELAHFESRKKNSVA,ENSTRES,QQYDHLPLS,1.99 2.09 2.15 1.93 1.50 1.90,1/18 (3.92)
KLGQMTAIESNNLNSVA,QMDTRES,QQYHRLPLS,1.14 0.97 0.43 0.27 0.18 0.92,3/18 (1.96)
KIYNMTGFQSRNADSIA,DNSTRGR,QQYHRLPLS,n.d. 2.99 1.96 2.60 2.87 n.d.,0/18
IITQSVMQESRNKSNVA,NTSERES,QQYDRLPLI,n.d. n.d. n.d. 2.84 2.06 n.d.,0/18

The parent sequence was in this pool as ten entries: three were never detected, three once, and four in most replicates, with averages from 0.34 to 2.37.
Empty control strains, which show no peptide, gave a signal in 4% of pairings with all light chain designs; the median was 2.64 and 95% of these signals were weaker than 1.59. No background was subtracted. For each scFv, signals with the empty controls are counted beside the result, with their mean in brackets.
Values of this round are not directly comparable with the first-round values of the same sequences.
In the paper, a design with two or fewer of six values counts as a poor binder.